Measurements published in US20080125453A1, “PHENYLEPHRINE TANNATE, PYRILAMINE TANNATE AND DEXTROMETHORPHAN TANNATE SALTS IN PHARMACEUTICAL COMPOSITIONS” (TIBER LABORATORIES, LLC, priority 2001, published 2008).

Format: physicochemical
Conditions: purified water; stated as 'will result', not carried out
Method: The salt of the active ingredient, corresponding to an amount of free base present in a final batch size of 1 kg was dissolved in 100 ml of purified water. 120 ml of purified water was placed in a 600 ml beaker and stirred. While stirring, 3 g of MAS was added in small portions to obtain a dispersion. The amount of MAS used is a part of the total amount of MAS to be used in the formulation. Once the MAS was dispersed, tannic acid was added to the mixture and stirred to form a uniform dispersion. Three different batches of the MAS/tannic acid dispersion in purified water were prepared for each active. In the three batches, the amount of tannic acid used in the batch may vary from an amount equal to that of the free base, to two time to three times that of the free base present in the initial salt solution.
The salt solution was then added in small portions, under light stirring, to the MAS/Tannic acid dispersion. After all of the salt solution was added, the volume was made up to 250 ml with purified water and stirring was continued for a period of 10 minutes.
The MAS was used in this step to serve as an adherent or a solid support for the tannic acid molecules to facilitate the conversion process.

COc1ccc2c(c1)[C@]13CCCC[C@@H]1[C@H](C2)N(C)CC3 [dextromethorphan, d-3-methoxy-N-methylmorphinan]
precipitate formation of the tannate salt (expected): copious amounts of precipitate
